Data on four compounds can be found in publication PMC4577729, “7-(Pyrazol-4-yl)-3H-imidazo[4,5-b]pyridine-based derivatives for kinase inhibition: Co-crystallisation studies with Aurora-A reveal distinct differences in the orientation of the pyrazole N1-substituent” (Bioorganic & Medicinal Chemistry Letters, 2015).

Sequences of proteins named here, by UniProt entry; tags and fusion partners are left off.
UniProt O14965, whole entry: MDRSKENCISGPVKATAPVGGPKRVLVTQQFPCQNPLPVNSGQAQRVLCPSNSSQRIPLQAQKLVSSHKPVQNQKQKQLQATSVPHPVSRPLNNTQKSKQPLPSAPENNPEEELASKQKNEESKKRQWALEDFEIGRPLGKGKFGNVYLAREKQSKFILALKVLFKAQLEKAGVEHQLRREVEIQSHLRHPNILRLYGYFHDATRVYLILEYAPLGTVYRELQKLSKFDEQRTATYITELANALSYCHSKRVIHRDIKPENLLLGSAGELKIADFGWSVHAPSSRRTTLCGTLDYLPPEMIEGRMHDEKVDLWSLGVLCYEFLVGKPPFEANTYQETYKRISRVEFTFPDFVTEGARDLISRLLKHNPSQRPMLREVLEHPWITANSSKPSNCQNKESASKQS
UniProt Q96GD4, whole entry: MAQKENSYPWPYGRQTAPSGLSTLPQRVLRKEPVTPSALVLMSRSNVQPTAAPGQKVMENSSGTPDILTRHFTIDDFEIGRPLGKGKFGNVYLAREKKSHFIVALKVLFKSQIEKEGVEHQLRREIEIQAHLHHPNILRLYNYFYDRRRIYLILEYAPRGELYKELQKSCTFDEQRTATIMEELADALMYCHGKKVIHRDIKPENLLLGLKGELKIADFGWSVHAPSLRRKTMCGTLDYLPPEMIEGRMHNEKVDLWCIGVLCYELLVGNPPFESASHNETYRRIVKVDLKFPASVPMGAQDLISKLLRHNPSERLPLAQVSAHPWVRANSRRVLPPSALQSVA

SMILES strings stand for the structures. pIC50: −log10 of the molar value.

The target in one data set is Aurora A (Homo sapiens, UniProt O14965). Put plainly: Aurora-A microfluidic kinase assay. Conditions: read-out: Aurora-A IC50; biochemical; mean of two determinations or mean ±SD for n > 2.
Data set [1] in a line: Human liver microsomal stability. In kind it is in vitro ADME. Conditions: percentage of compound metabolised after a 30 min incubation, human liver microsomes.
A short description of data set [2]: Mouse liver microsomal stability. Conditions: percentage of compound metabolised after a 30 min incubation, mouse liver microsomes. In kind it is in vitro ADME. For orientation: Liver microsomes are a subcellular fraction often used to study metabolism.
For the next data set, the target named is Aurora B (Homo sapiens, UniProt Q96GD4). Put plainly: Aurora-B microfluidic kinase assay. The note with it: read-out: Aurora-B IC50; biochemical; mean of two determinations or mean ±SD for n > 2.
Data set [3] has as its system HCT116 human colon carcinoma cells. Put plainly: HCT116 cell growth inhibition. Conditions: read-out: GI50 HCT116, 72 h incubation.

With `Cc1nn(C)cc1-c1nc2c(-c3cnn(Cc4ccc(F)cc4)c3)c(Cl)cnc2[nH]1`, the pIC50 (commonly −log10 of the IC50, conventionally taken in molar units) on Aurora A was 6.74; at Aurora B, 6.46. Further, in data set [1], the “HLM % met/30 min” value turned out to be 39%. Also, in data set [2], the “MLM % met/30 min” value came to 52%. Moreover, the GI50 (in general, the concentration at which growth is held to half of that of the control) in data set [3] stood at 200 nM.
For `Cc1nn(C)cc1-c1nc2c(-c3cnn(Cc4cccc(CN(C)C)c4)c3)c(Cl)cnc2[nH]1`, the pIC50 is 7.85 on Aurora A and 7.77 at Aurora B. Besides, the “HLM % met/30 min” value in data set [1] is reported as 95%. Besides, in data set [2], the “MLM % met/30 min” value came out at 97%.
With `Cc1nn(C)cc1-c1nc2c(-c3cnn(Cc4cccc(CN5CCCC5)c4)c3)c(Cl)cnc2[nH]1`, the pIC50 is 7.77 at Aurora A and 7.51 at Aurora B. The “HLM % met/30 min” value in data set [1] was determined as 92%. For the same compound, in data set [2], the “MLM % met/30 min” value stood at 100%.
As for `Cc1nn(C)cc1-c1nc2c(-c3cnn(Cc4ccc(F)c(F)c4)c3)c(Cl)cnc2[nH]1`, the pIC50 at Aurora A was 6.49; on Aurora B it was 6.34. In addition, the “HLM % met/30 min” value in data set [1] came out at 28%. For the same compound, the “MLM % met/30 min” value in data set [2] turned out to be 31%. The GI50 in data set [3] was 130 nM.
